Patent US5807671A (priority 1995, dated 1998)

Sequences of proteins named here, by UniProt entry; tags and fusion partners are left off. Residues count along the entry.
UniProt P22303, 32-614: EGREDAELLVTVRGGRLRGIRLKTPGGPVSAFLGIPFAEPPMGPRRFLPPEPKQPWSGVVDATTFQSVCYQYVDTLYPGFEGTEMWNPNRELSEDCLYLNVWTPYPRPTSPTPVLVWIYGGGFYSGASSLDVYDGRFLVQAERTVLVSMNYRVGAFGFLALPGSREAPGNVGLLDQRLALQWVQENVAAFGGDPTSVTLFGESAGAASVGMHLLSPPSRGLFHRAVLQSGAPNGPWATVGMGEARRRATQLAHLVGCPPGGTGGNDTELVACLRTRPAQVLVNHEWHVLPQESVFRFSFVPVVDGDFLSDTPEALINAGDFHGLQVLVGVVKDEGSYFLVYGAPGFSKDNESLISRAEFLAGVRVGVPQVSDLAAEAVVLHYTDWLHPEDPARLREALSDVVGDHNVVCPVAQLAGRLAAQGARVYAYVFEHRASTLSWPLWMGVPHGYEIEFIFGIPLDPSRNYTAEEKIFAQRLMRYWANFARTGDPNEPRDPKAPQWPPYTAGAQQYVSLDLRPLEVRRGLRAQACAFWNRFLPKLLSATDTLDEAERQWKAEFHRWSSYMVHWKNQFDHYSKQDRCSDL

How the values were obtained:
[1] = molecular target: diisopropylphosphoryl-AChE (E5) (Homo sapiens, UniProt P22303); assay: biochemical
[2] = molecular target: diisopropylphosphoryl-AChE (E6) (Homo sapiens, UniProt P22303); assay: biochemical

SMILES: C[n+]1ccccc1/C=N/O [PAM, Pyridine-2-aldoxime methiodide]
- Kd [1]: 190 ± 70 µM
- Kd [2]: 270 ± 40 µM
